Results from ChEMBL document CHEMBL1133734, “Synthesis and evaluation of nitroheterocyclic phosphoramidates as hypoxia-selective alkylating agents” (2000).

Legend:
MCF7 = experiment: Tested in vitro for cytotoxicity against MCF-7/WT wild-type human breast cancer cells
HT-29 [1] = experiment: Tested in vitro for cytotoxicity against HT-29 human colon carcinoma cells under aerobic condition
MCF7-CP = experiment: Tested in vitro for cytotoxicity against MCF-7/CP 4-hydroperoxycyclophosphamide-resistant human breast cancer cells
B16 = experiment: Tested in vitro for cytotoxicity against B16 murine melanoma cells; assay type: functional, Mus musculus
Procedure, shortened: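 Clonogenic assay. Cells were suspended in unsupplemented medium at 2-30 000 cells/mL and exposed 2 h at 37 °C, 5% CO2 to 1-400 µM drug (final), with the top dose chosen to give >99% kill. Drug stocks were made in medium or ethanol. After washing, cells were plated at 2-3 dilutions. Colonies of ≥50 cells were stained with crystal violet at 8 days (B16) or 14 days (MCF-7). LC99 was taken by linear regression of log surviving fraction vs concentration.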

HT-29 [2] = experiment: Tested in vitro for cytotoxicity against HT-29 human colon carcinoma cells under hypoxic condition

Structure (SMILES) | LC99 (MCF7) [µM] | LC99 (HT-29 [1]) [µM] | LC99 (MCF7-CP) [µM] | LC99 (B16) [µM] | LC99 (HT-29 [2]) [µM]
NP(=O)(OCc1ccc([N+](=O)[O-])s1)N(CCBr)CCBr (stereo not given) | 6.1 | 1.4 | 4.1 | 1.8 | 0.18
NP(=O)(OCc1ccc([N+](=O)[O-])o1)N(CCBr)CCBr (stereo not given) | 4.5 | 1.8 | 2.9 | 2 | 0.22
